Values quoted from earlier work as cited in patent US12589090B2, “Compounds and methods for the treatment of degenerative disorders” (Aquilus Pharmaceuticals, Inc., priority 2019, dated 2026).

Key:
human ALS patients = conditions: stated as equivalent of the mouse survival gain; cited from earlier work
[1] = system: SOD-1-G93A (SOD-1) strain; conditions: SOD-1-G93A mice; cited from earlier work

For Nc1nc2ccc(OC(F)(F)F)cc2s1 [riluzole], the “increase in survival in human ALS patients” value (human ALS patients) is listed as about 3 month and the “increase of mean survival in mutant mice” value [1] is listed as 10 to 14 days.
